HCMV UL50-53 inh: inhibitors of HCMV UL50-UL53 interaction, biochemical, HTRF; AID 1918969, 2023; inhibition, % (no concentration beside the values); HCMV UL50-UL53 nuclear egress complex (human cytomegalovirus); 0.15% of 190,000 active; normalized percent inhibition; in the data active = inhibition above about 27%, passing the limit was not always enough
GIV Gai3 FP: GIV-Galpha-i interaction inhibition | P08753 | hit rate 0.42% among 210,000 | percent of control (FP), % (no concentration beside the values) | Galpha-i3/FITC-GIV peptide fluorescence polarization, 90 min; active compounds read low; scaled: aluminum fluoride 0%, vehicle 100%;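 active = replicate mean at 85% of control or lower, very high polarization wells dropped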;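 note: wells of about 15 µL received 100 nL stock; the first replicate is given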
GIV-Gai FP conf: inhibitors of GIV peptide binding to Galpha-i3, confirmation, biochemical, fluorescence polarization, FITC-GIV peptide, rat Galphai3; 38% of 580 active; hits give low values; shares compounds with GIV Gai3 FP; fluorescence polarization, mP at 100 µM;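 active = inhibition score of 15 or more, meaning 100 minus mean polarization as percent of control over three replicates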;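 also: lower mP means peptide displaced from Galphai3 so more inhibition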
GIV-Gai AS conf: inhibitors of GIV binding to Galpha-i3, confirmation, orthogonal assay for GIV-Galpha-i inhibitor project, biochemical, AlphaScreen, His-GIV, GST-Galphai3; shares compounds with GIV Gai3 FP; AlphaScreen counts at 100 µM; 39% of 580 active; purified proteins, 90 min; hits give low values;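 active = inhibition score at or above a set limit, where the score is 100 minus the three-replicate mean percent of control signal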
* marks the source's active call; other numbers are inactive results. Shown are actives, neighbours in structure and some others; about 0.43% of the full set was active somewhere.

The opening five compounds, to show the layout:
`Oc1ccc(C=Nc2ccc(N3CCOCC3)cc2)cc1O` gave HCMV UL50-53 inh -29.3.
Screening CCN1CCN(c2ccc(N=Cc3cc(I)ccc3O)cc2)CC1 returned HCMV UL50-53 inh -29.2, GIV Gai3 FP 28.1*, GIV-Gai FP conf 80.8 and GIV-Gai AS conf 28751.
`CN(C)CCOC(=O)c1cnn2c(C(F)(F)F)cc(-c3ccccc3)nc12` gave HCMV UL50-53 inh -98.1 and GIV Gai3 FP 106.6.
`O=C(/C=C/c1ccco1)OCc1cc(=O)n2c(n1)sc1ccccc12` gave HCMV UL50-53 inh -23.9.
Screening CCc1ccc(S(=O)(=O)/N=C2\C=CC(=O)c3ccccc32)cc1 returned GIV Gai3 FP 5.6*, GIV-Gai FP conf 11.5* and GIV-Gai AS conf 1607*.

Results, repeating the preview:
`Oc1ccc(C=Nc2ccc(N3CCOCC3)cc2)cc1O` gave HCMV UL50-53 inh -29.3.
Screening CCN1CCN(c2ccc(N=Cc3cc(I)ccc3O)cc2)CC1 returned HCMV UL50-53 inh -29.2, GIV Gai3 FP 28.1*, GIV-Gai FP conf 80.8 and GIV-Gai AS conf 28751.
`CN(C)CCOC(=O)c1cnn2c(C(F)(F)F)cc(-c3ccccc3)nc12` gave HCMV UL50-53 inh -98.1 and GIV Gai3 FP 106.6.
`O=C(/C=C/c1ccco1)OCc1cc(=O)n2c(n1)sc1ccccc12` gave HCMV UL50-53 inh -23.9.
Screening CCc1ccc(S(=O)(=O)/N=C2\C=CC(=O)c3ccccc32)cc1 returned GIV Gai3 FP 5.6*, GIV-Gai FP conf 11.5* and GIV-Gai AS conf 1607*.
Screening CCc1ccc(S(=O)(=O)/N=C2/C=C(Nc3ccccc3)C(=O)c3ccccc32)cc1 returned GIV Gai3 FP 101.0.
Screening CCCCN(CCCC)CC(O)CN(c1ccccc1OC)S(=O)(=O)c1ccccc1 (configuration not stated) returned GIV Gai3 FP 103.4.
CCCC(C(=O)O)N1C(=O)/C(=C/c2ccc(C)cc2)SC1=S (configuration not stated) was read as HCMV UL50-53 inh -16.0.
`CCCCC(C(=O)O)N1C(=O)/C(=C/c2cccnc2)SC1=S` (configuration not stated) gave HCMV UL50-53 inh -44.8, GIV Gai3 FP 83.3*, GIV-Gai FP conf 71.8 and GIV-Gai AS conf 35991.
COc1cc(NC(=O)c2sc3nc4n(c(=O)c3c2C)CCCCC4)cc(OC)c1OC was read as HCMV UL50-53 inh -8.0 and GIV Gai3 FP 104.0.
Screening COc1ccc(NC(=O)c2sc3nc4n(c(=O)c3c2C)CCC4)cc1Cl returned HCMV UL50-53 inh 2.9, GIV Gai3 FP 83.4*, GIV-Gai FP conf 80 and GIV-Gai AS conf 33472.
For CC(C)(C)c1ccc(S(=O)(=O)Nc2cnc(N3CCNCC3)c(C(=O)N3CCCC3)c2)cc1 the results were GIV Gai3 FP 105.5.
For O=C(O)c1cc(NS(=O)(=O)c2ccc(F)cc2)cnc1N1CCCC1 the results were HCMV UL50-53 inh -56.9, GIV Gai3 FP 77.1*, GIV-Gai FP conf 46.9* and GIV-Gai AS conf 18634*.
O=C(O)c1cc(NS(=O)(=O)c2ccc3c(c2)CCCC3)ccc1N1CCN(C2CCCCC2)CC1 was read as HCMV UL50-53 inh -11.9 and GIV Gai3 FP 107.3.
O=C(O)c1cc(NS(=O)(=O)c2ccc3c(c2)CCCC3)cnc1N1CCC(N2CCCCC2)CC1 was read as HCMV UL50-53 inh -23.5, GIV Gai3 FP 80.3*, GIV-Gai FP conf 49.8* and GIV-Gai AS conf 27614.
For O=C(CS(=O)(=O)c1ccccc1)Nc1cccc(C(F)(F)F)c1 the results were HCMV UL50-53 inh 23.0 and GIV Gai3 FP 108.1.
`CCOc1ccc(CNC(=O)C(CC)n2nc(C)c3sc4ccccc4c3c2=O)cc1OC` (configuration not stated) gave HCMV UL50-53 inh -24.4 and GIV Gai3 FP 106.5.
For CC(NCCO)c1ccc2c(c1)OCCO2 (configuration not stated) the results were HCMV UL50-53 inh -1.8, GIV Gai3 FP 78.2*, GIV-Gai FP conf 75.5 and GIV-Gai AS conf 36499.
Screening CC(NC(=O)c1ccccc1C(=O)NC(C)c1ccc2c(c1)OCCO2)c1ccc2c(c1)OCCO2 (configuration not stated) returned HCMV UL50-53 inh -25.0 and GIV Gai3 FP 104.6.
For Cc1ccccc1-n1ccnc1SCC(N)=O the results were HCMV UL50-53 inh -4.6 and GIV Gai3 FP 107.9.
For Clc1c(C=NCc2ccco2)sc2ccccc12 the results were HCMV UL50-53 inh -34.2.
O=C(COc1ncnc2sc(-c3ccccc3)cc12)N1CCNC1=O was read as HCMV UL50-53 inh -9.8.
CCOc1cccc(N2C(=O)/C(=C/c3cn(CC(=O)N4CCOCC4)c4ccccc34)C(=O)NC2=S)c1 was read as HCMV UL50-53 inh -3.1, GIV Gai3 FP 82.1*, GIV-Gai FP conf 62.4 and GIV-Gai AS conf 45192.
For CN1C(=O)/C(=C/c2cn(CC(=O)N3CCCC3)c3ccccc23)C(=O)NC1=S the results were HCMV UL50-53 inh -4.9 and GIV Gai3 FP 94.6.
Screening Nc1nonc1C(=O)NCCN=Cc1ccccc1O returned HCMV UL50-53 inh -1.6 and GIV Gai3 FP 106.0.
Screening Nc1nonc1C(=O)NN=c1c(=O)c2ccccc2c1=O returned HCMV UL50-53 inh -19.5, GIV Gai3 FP 79.8*, GIV-Gai FP conf 59.4 and GIV-Gai AS conf 25933*.
Screening Cc1ccc(NC(=O)c2ccc3oc(=O)n(C)c3c2)cc1 returned HCMV UL50-53 inh -31.2 and GIV Gai3 FP 95.5.
Screening Cc1ccc(S(=O)(=O)N(CCC#N)CC2CCCO2)cc1 (configuration not stated) returned HCMV UL50-53 inh -36.5 and GIV Gai3 FP 102.7.
For COC(=O)c1ccc(-c2nnc(-c3ccc(N(C)C)cc3)o2)cc1 the results were HCMV UL50-53 inh -28.8.
COC(=O)c1ccc(-c2ncc(-c3ccc(N(C)C)cc3)o2)cc1 was read as HCMV UL50-53 inh 6.2, GIV Gai3 FP 86.5, GIV-Gai FP conf 71.1 and GIV-Gai AS conf 48206.
`COc1ccc(SCC(=O)O)cc1` gave HCMV UL50-53 inh -15.6.
For Cc1ccc(C)n1-c1ccc(SCC(=O)O)cc1 the results were HCMV UL50-53 inh 55.5*, GIV Gai3 FP 6.4*, GIV-Gai FP conf 16.8* and GIV-Gai AS conf 2022*.
CCn1cc(C(=O)NC2CCCCC2)c2cc(OC)c(OC)cc2c1=O was read as HCMV UL50-53 inh -0.2 and GIV Gai3 FP 97.8.
Screening CC(C)c1ccccc1NC(=O)CC(C)(C)C returned HCMV UL50-53 inh -31.0 and GIV Gai3 FP 92.2.
O=C(C1CCCCC1)N1CCN(c2cc(C(F)(F)F)nc3ccccc23)CC1 was read as HCMV UL50-53 inh 11.4 and GIV Gai3 FP 111.7.
O=C(O)CSCC(=O)N1CCN(c2cc(C(F)(F)F)nc3ccccc23)CC1 was read as HCMV UL50-53 inh -47.9, GIV Gai3 FP 91.1, GIV-Gai FP conf 72.5 and GIV-Gai AS conf 48255.
Screening CC1=C(C)C(=O)c2ccccc2C1=O returned HCMV UL50-53 inh -171.7 and GIV Gai3 FP 109.0.
`CC1(C)CCC2=C(O1)c1ccccc1C(=O)C2=O` gave HCMV UL50-53 inh 109.8, GIV Gai3 FP 54.2*, GIV-Gai FP conf 54.3* and GIV-Gai AS conf 33926.
CCn1nnc2cc(-c3noc(-c4sc(C)nc4C)n3)ccc21 was read as GIV Gai3 FP 99.7.
For COC(=O)c1cc(N2C(=O)/C(=C/c3ccc(OC)c(Br)c3)C=C2c2ccccc2)ccc1Cl the results were GIV Gai3 FP 7.0*, GIV-Gai FP conf 61.8 and GIV-Gai AS conf 49090.
For COc1ccc(/C=C2\C=C(c3ccccc3)N(c3cccc(C(C)=O)c3)C2=O)cc1Br the results were GIV Gai3 FP 78.2*, GIV-Gai FP conf 72.6 and GIV-Gai AS conf 38656.
For COc1ccc(/C=C2\C=C(c3ccccc3)N(c3ccc(Br)cc3)C2=O)cc1Br the results were GIV Gai3 FP 109.8.

Bioassay records (PubChem BioAssay)
